# Rows were chosen to be rich in hits. Some 0.59% of all compounds tested hit in one or more screens of this group.
# uPA generation: cell surface uPA generation inhibition; Potency, µM (highest dose often 38.3 µM), for inactives: at the highest dose activity change, negative = inhibition, usual class: inhibitors; AID 540303; cell surface uPA generation assay, qHTS; actives 0.31% (n = 330,000); active = well fitted inhibition curve with a large enough effect; inconclusive = small, poorly fitted or top-dose-only effect; inactive = no such curve, though single readings can be large or run the other way; tested in mouse RAW 264.7 cells; also: potency is read from the fitted curve at half-maximal effect; % is scaled to controls: 0 for no effect and ±100 for the full control effect; nearly all actives have a fitted effect of over 55% in size
# Rango-impB inh: inhibitors of Rango-importin beta complex formation; Q14974; Rango CFP/YFP FRET sensor + importin beta, 45 min; actives 0.031% (n = 340,000); Potency, µM (series often up to 92.2 µM), inactives show top-dose inhibition of complex formation;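 also: potency is read from the fitted curve at half-maximal effect; 0% = DMSO wells and 100% = buffer wells lacking importin beta; nearly all actives have a fitted effect of over 15% in size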
#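 FRET biosensor Rango (snurportin 1 IBB between N-terminal EYFP and C-terminal Cerulean), 50 nM in PBS/1 mM DTT/0.02% Tween-20/0.1% BSA, preincubated 5 min RT with compound; 0.125 microM importin beta added, 45 min RT, CFP/YFP FRET ratio read.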
# Rango dissoc inh: prevents RanGTP from dissociating the Rango-importin beta complex. Biochemical FRET Rango-importin beta, RanGTP-induced dissociation. O95149+P62826. Potency, µM (top dose mostly 46.1 µM), inactives show top-dose activity change, negative = inhibition. actives 0.071% (n = 340,000); also: potency is read from the fitted curve at half-maximal effect; % of control where 0% means no effect; nearly all actives have a fitted effect of over 45% in size
#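 Quantitative HTS using a FRET biosensor: 0.1 uM Rango, 0.25 uM importin beta, 0.6 uM Ran, 2 mM GTP, 0.2 uM RCC1 final, PBS with DTT, Tween-20 and BSA. Post-read taken 45 min after Ran addition.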
# a7 integrin act: activates integrin-mediated alleviation for muscular dystrophy; alpha7betagal myoblasts, beta-gal FDG fluorescence, 48 h; actives 0.064% (n = 350,000); Potency, µM (doses to about 38.3 µM), for inactives: at the top dose activation, most hits filed as activators; active = well fitted activation curve with a large enough effect; inconclusive = small, poorly fitted or top-dose-only effect; inactive = no such curve, though single readings can be large or run the other way;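 also: potency is read from the fitted curve at half-maximal effect; 100% = response of the positive control SU9516; nearly all actives have a fitted effect of over 60% in size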
#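 Alpha7betagal+/- myoblasts (passage 13) were plated 16-24 hr, then exposed to compounds (1:260 dilution of DMSO stock) for 48 hours at 37C. After MPER lysis, β-galactosidase reporter activity was read as FDG fluorescence (ex 480/em 540) after 30 minutes.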
# Giardia killer: Giardia lamblia killing | Giardia lamblia trophozoite viability | activity change, % at 7.66 µM, hits read low | actives 0.15% (n = 340,000); in the data active = activity change below about -80%; inconclusive = between about -30% and that limit;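 also: parasites exposed to compound for two days anaerobically before the ATP read; % is scaled to controls: 0 for no effect and ±100 for the full control effect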
#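 Media and compound were dispensed first, then trophozoites at 100 cells/well; plates sat 48 hrs at 37 deg C without oxygen before ATP luminescence reagent was added and read after 15-30 min at room temperature.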
# An asterisk follows results filed as active; ? = inconclusive; · = not tested or not shown. Unless noted, calls follow the shape of the full dose curve.
no. | structure | uPA generation | Rango-impB inh | Rango dissoc inh | a7 integrin act | Giardia killer
1 | O=S(=O)(c1ccccc1)N1N=C(c2cccs2)CC1c1ccc(F)cc1 (configuration not stated) | 3% | 4% | -6% | 7% | 3
2 | COc1ccc2nc(N=Nc3ccc(N(C)C)cc3)sc2c1 | -12% | 5% | 10% | 20% | -82*
3 | COc1ccc(NC(=O)O/N=C/c2c(C)nn(C(C)(C)C)c2C)cc1 | 2µM* | 0% | 0% | -4% | ?
4 | COc1ccccc1OCCn1c(CCNC(=O)C2CCCCC2)nc2ccccc21 | · | · | · | · | 12
5 | COc1ccc(CC(=O)Oc2ccccc2Cl)cc1S(=O)(=O)N1CCOCC1 | -12% | -1% | 6% | -5% | 2
6 | O=C(Nc1nc2cc(Cl)ccc2s1)C1CCCN(S(=O)(=O)c2cccc3cccnc23)C1 (configuration not stated) | 13µM* | -1% | 8% | -51% | -24
7 | COc1ccc(CCNC(=O)c2ccc(F)c(S(=O)(=O)N3CCCCC3)c2)cc1 | · | · | · | 3% | ·
8 | Cc1ccc(-c2csc(NC(=O)c3ccc(C)o3)n2)cc1 | 2% | 2% | -1% | 6% | 7
9 | Cc1ccc(CNC(=O)CSc2ccsc2[N+](=O)[O-])cc1 | -3% | -4% | -7% | 11% | -88*
10 | COc1ccc(CNC(=O)CSc2ccsc2[N+](=O)[O-])cc1 | -5% | -1% | ? | -28% | ?
11 | Cc1ccc(CNC(=O)c2ccc([N+](=O)[O-])o2)cc1 | -9% | 3% | 12% | -61% | -86*
12 | CN(Cc1ccccc1)C(=O)c1ccc([N+](=O)[O-])o1 | ? | 1% | 7% | 0% | -87*
13 | Cc1ccc(-c2csc(NC(=O)c3ccc([N+](=O)[O-])o3)n2)cc1 | -3% | 0% | -11% | -42% | -95*
14 | Cc1ccc(/C=C/C(=O)c2ccc([N+](=O)[O-])o2)cc1 | ? | 0% | 1% | 0% | -1
15 | CCN(CC)c1nc2ccccc2nc1-n1nc(C)cc1C | · | ? | 15µM* | -22% | -13
16 | Cc1cc(C)n(-c2nc3ccccc3n3cnnc23)n1 | · | 5% | 4% | 9% | 8
17 | COc1ccc(CN2CCNC(=O)C2CC(=O)NCCc2c[nH]c3ccccc23)c(OC)c1 (configuration not stated) | · | -3% | 0% | 10µM* | -8
18 | COc1ccc(CN2CCNC(=O)C2CC(=O)NCCc2nc(C)c(C)s2)c(OC)c1 (configuration not stated) | 0% | 0% | -1% | -7% | 8
19 | COc1ccc(N2C(=O)CC(N3CCN(S(=O)(=O)c4c(C)cc(C)cc4C)CC3)C2=O)cc1 (configuration not stated) | 3% | 0% | 11% | -5% | -7
20 | O=C(NCCc1nc2ccccc2n1CCCOc1ccccc1)C1CCCCC1 | · | · | · | · | 6
21 | CCC(=O)Nc1ccc(C(=O)Cn2ncc(Cl)c(Cl)c2=O)cc1 | 7.9µM* | 0% | -1% | -66% | -14
22 | CCOC(=O)c1ccc(NC(=O)Cn2ncc(Cl)c(Cl)c2=O)cc1 | -12% | -3% | 1% | -61% | -23
23 | COc1ccc(SCC(CC(C)C)N2CCN(CCc3ccccc3)CCC2=O)cc1 (configuration not stated) | · | · | · | · | -2
24 | Nc1nn(-c2ccccc2)c(N)c1N=Nc1cccc(F)c1 | 1.4µM* | -2% | 6% | -13% | -27
25 | COC(=O)C1CCN(C(=O)COC(=O)c2cccc(NS(=O)(=O)c3ccccc3)c2)CC1 | -1% | 1% | 10% | 15% | 1
26 | CC(C)c1onc(C(=O)N2CCN(C(c3ccccc3)c3ccccc3)CC2)c1[N+](=O)[O-] | 3.2µM* | -2% | -5% | -12% | -4
27 | O=C(NCCO)c1cc2cc(Cl)cc(Cl)c2oc1=O | -2% | ? | 18µM* | -5% | -18
28 | C=C1CCN(C(CC(C)C)C(=O)NCc2ccc(Cl)cc2)S(=O)(=O)c2ccccc21 (configuration not stated) | · | · | · | · | -24
29 | O=C1/C(=N\S(=O)(=O)c2cccs2)C([n+]2ccc(CCCc3ccccc3)cc2)=C([O-])c2ccccc21 | -5% | 3% | 20% | -30% | -4
30 | O=C1/C(=N\S(=O)(=O)c2cccs2)C([n+]2cccc(Cc3ccccc3)c2)=C([O-])c2ccccc21 | 2% | 58µM* | 19% | -72% | 25
31 | CC(C)c1cc(CN2C(C)COCC2C)cc(C(C)C)c1O (configuration not stated) | -4% | -1% | -3% | -37% | 5
32 | O=C(O)COc1ccc(/C=N/NC(=O)c2ccc(-c3csc(Nc4ccc(Cl)cc4)n3)cc2)cc1 | 2% | 52µM* | -15% | -10% | -26
33 | C[C@H]1CN([C@@H](C)CO)C(=O)CCCn2cc(nn2)CO[C@@H]1CN(C)C(=O)Nc1ccc(N2CCN(C)CC2)cc1 | · | · | · | 9% | ·
34 | CC(C)(C)C(=O)Nc1cc2nn(-c3ccccc3)nc2cc1Cl | -13% | -2% | 5% | ? | -93*
35 | CC(=O)Nc1cc2nn(-c3ccccc3)nc2cc1Cl | -7% | -1% | 3% | 11% | 5
36 | O=C(c1cn(Cc2ccccc2)nc1-c1ccccc1)N1CCN(c2ccccn2)CC1 | 4.5µM* | -1% | -12% | -16% | 6
37 | O=C(CCc1nc2ccccc2c(=O)[nH]1)Nc1ccccc1N1CCCCC1 | · | · | · | 2% | ·
38 | Cc1ccc(-n2ncc(C(=O)Nc3cc(Cl)cc(Cl)c3)c2C2CCNCC2)cc1C | 11µM* | -3% | -5% | -69% | ?
39 | O=C(NC1CCN(Cc2ccccc2)CC1)c1cc(S(=O)(=O)Nc2ccc(F)cc2)ccc1Cl | 3% | 0% | 0% | 13% | 4
40 | COC(=O)C(=O)C/C(=N/Nc1ncnc2ccccc12)c1ccc(Cl)cc1 | · | ? | ? | 10µM* | -7
41 | CC1=C(C(=O)Nc2cccc(C)n2)C(c2ccc3c(c2)OCO3)C2=C(CC(c3ccco3)CC2=O)N1 (configuration not stated) | 5% | ? | 18µM* | 1% | 27
42 | C/C(=N/OC(=O)c1c(-c2ccccc2Cl)noc1C)c1cnccn1 | -7% | 0% | -4% | -6% | -23
43 | Cc1onc(-c2ccccc2Cl)c1C(=O)O/N=C(\N)c1ccc([N+](=O)[O-])o1 | 4.5µM* | 2% | 23% | -62% | ?
44 | Cc1cc(Sc2nnc(N)s2)c2ccccc2n1 | 3.2µM* | -4% | -1% | 14% | 23
45 | COc1ccc(C2Nc3ccccc3C(=O)N2Cc2ccccc2)cc1COc1ccccc1F (configuration not stated) | · | · | · | · | 6
46 | COc1cc2c(cc1OC)CN(C(=O)/C=C/c1cccs1)CC2 | 3.2µM* | ? | -7% | -18% | 6
47 | COc1cc2c(cc1OC)CN(C(=O)c1cccs1)CC2 | -3% | -3% | 18% | 17% | -13
48 | O=C(Nc1ccc2nc(-c3cccs3)c(-c3cccs3)nc2c1)N1CCCCC1 | · | · | · | · | -17

# Reformatted field by field: entries from further up
43	Cc1onc(-c2ccccc2Cl)c1C(=O)O/N=C(\N)c1ccc([N+](=O)[O-])o1
- uPA generation: 4.5µM*
- Rango-impB inh: 2%
- Rango dissoc inh: 23%
- a7 integrin act: -62%
- Giardia killer: ?

47	COc1cc2c(cc1OC)CN(C(=O)c1cccs1)CC2
- uPA generation: -3%
- Rango-impB inh: -3%
- Rango dissoc inh: 18%
- a7 integrin act: 17%
- Giardia killer: -13

44	Cc1cc(Sc2nnc(N)s2)c2ccccc2n1
- uPA generation: 3.2µM*
- Rango-impB inh: -4%
- Rango dissoc inh: -1%
- a7 integrin act: 14%
- Giardia killer: 23

40	COC(=O)C(=O)C/C(=N/Nc1ncnc2ccccc12)c1ccc(Cl)cc1
- uPA generation: ·
- Rango-impB inh: ?
- Rango dissoc inh: ?
- a7 integrin act: 10µM*
- Giardia killer: -7

# High-throughput results: PubChem BioAssay, National Center for Advancing Translational Sciences (NCATS)
